Results as given in patent US20150064172A1, “METHODS OF TREATING A DISEASE OR DISORDER ASSOCIATED WITH BRUTON'S TYROSINE KINASE” (Celgene Avilomics Research, Inc., priority 2013, published 2015).

The chains behind the UniProt entries cited, without tags or fusion partners. Where a name states a change or a piece, a line headed by the entry shows the natural chain unless it says otherwise.
UniProt Q06187: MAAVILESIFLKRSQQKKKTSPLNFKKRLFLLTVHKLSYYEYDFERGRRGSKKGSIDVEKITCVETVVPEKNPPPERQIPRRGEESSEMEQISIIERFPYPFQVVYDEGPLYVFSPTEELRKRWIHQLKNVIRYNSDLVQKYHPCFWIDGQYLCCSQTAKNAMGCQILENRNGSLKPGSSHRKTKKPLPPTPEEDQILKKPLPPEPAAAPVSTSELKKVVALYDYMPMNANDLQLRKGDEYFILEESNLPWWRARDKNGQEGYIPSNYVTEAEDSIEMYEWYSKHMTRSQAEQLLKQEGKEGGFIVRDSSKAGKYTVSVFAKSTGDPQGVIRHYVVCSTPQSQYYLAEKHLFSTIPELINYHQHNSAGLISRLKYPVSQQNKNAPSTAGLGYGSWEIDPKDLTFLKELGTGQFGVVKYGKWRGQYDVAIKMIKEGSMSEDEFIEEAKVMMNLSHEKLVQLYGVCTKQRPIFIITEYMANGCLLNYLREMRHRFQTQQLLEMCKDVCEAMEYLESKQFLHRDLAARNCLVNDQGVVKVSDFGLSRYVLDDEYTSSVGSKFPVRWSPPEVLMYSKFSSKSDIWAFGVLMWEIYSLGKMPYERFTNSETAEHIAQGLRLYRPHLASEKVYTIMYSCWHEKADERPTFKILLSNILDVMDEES

Experiments:
BTK [1] = molecular target: T1, BTK (Homo sapiens, UniProt Q06187); test: biochemical
BTK [2] = molecular target: T1, BTK; test: Phosphorylation of Btk (Tyr223) and PLCγ2 (Tyr1217) in Ramos cells; format: cell-based

SMILES	IC50 (BTK [1])	EC50 (BTK [2])
C=CC(=O)Nc1cccc(Nc2nc(Nc3ccc(OCCOC)cc3)ncc2F)c1.O=S(=O)(O)c1ccccc1 [Compound 1 besylate, N-(3-(5-fluoro-2-(4-(2-methoxyethoxyl)phenylamino)pyrimidin-4-ylamino)phenyl)acrylamide benzenesulfonic acid salt]	< 0.5 nM	
C=CC(=O)Nc1cccc(Nc2nc(Nc3ccc(OCCOC)cc3)ncc2F)c1 [Compound 1, N-(3-(5-fluoro-2-(4-(2-methoxyethoxyl)phenylamino)pyrimidin-4-ylamino)phenyl)acrylamide]		1 to 10 nM
